For the assay, the system named is Ba/F3 ErbB2 A775_G776insYVMA. The assay is described as follows: ErbB2 mutant cell inhibition test (CTG, 72 hours). The class given is cell-based. Particulars: Ba/F3 ErbB2 A775_G776insYVMA mutant cell line. How it is done: Cells were cultured, harvested during their logarithmic growth phase, and counted using a platelet counter. Cell viability was verified to be above 90% by trypan blue exclusion assay. After in vitro culture, 2×10^6 cells were obtained. The cell suspension was aliquoted into a 96-well plate at 1×10^3 cells per well (90 μL/well), and incubated overnight under conditions of 37° C., 5% CO2, and 95% humidity. A 10× drug solution was prepared, with a maximum concentration of 10 μM for the assay, and serially diluted 3-fold to nine concentrations. 10 μL of the drug solution was added to each well of the 96-well plate inoculated with the cells, and three duplicate wells were set for each drug concentration. The 96-well plate, now containing the drug-treated cells, was cultured under conditions of 37° C., 5% CO2, and 95% humidity for an additional 72 hours before CTG analysis was performed.

Take `CS(=O)(=O)CCNCc1ccc(-c2ccc3ncnc(Nc4ccc(OCc5cccc(F)c5)c(Cl)c4)c3c2)o1` [Lapatinib, reference compound]: the “Inhibitory activity on cell proliferation (in words)” value is “good inhibitory activity”.

The values are drawn from patent US20240197737A1, “APPLICATION OF COMPOUND IN PREPARATION OF INHIBITORY DRUG TARGETING ERBB2 MUTANT” (SHANGHAI PHARMACEUTICALS HOLDING CO., LTD., priority 2021, published 2024).
